Columns and labels:
[1] = target: Amine oxidase [flavin-containing] B (Rattus norvegicus, UniProt P19643); assay: biochemical; format: tissue-based, Brain
[2] = target: Amine oxidase [flavin-containing] A (Rattus norvegicus, UniProt P21396); assay: biochemical; format: tissue-based, Brain

The chains behind the UniProt entries cited, without tags or fusion partners.
UniProt P19643, whole entry: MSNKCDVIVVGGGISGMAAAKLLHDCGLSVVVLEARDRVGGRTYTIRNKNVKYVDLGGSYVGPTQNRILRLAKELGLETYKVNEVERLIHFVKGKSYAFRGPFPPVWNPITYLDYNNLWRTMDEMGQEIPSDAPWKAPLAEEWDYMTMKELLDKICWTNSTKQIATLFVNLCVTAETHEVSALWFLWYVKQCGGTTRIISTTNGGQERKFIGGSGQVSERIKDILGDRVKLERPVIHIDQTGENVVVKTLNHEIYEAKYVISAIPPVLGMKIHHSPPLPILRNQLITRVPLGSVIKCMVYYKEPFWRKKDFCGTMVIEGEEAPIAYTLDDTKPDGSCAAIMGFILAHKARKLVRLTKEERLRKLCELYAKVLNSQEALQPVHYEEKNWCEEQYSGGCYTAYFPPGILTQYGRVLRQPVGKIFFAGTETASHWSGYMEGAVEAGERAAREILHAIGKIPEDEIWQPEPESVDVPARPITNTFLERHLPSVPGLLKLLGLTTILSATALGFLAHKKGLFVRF
UniProt P21396, whole entry: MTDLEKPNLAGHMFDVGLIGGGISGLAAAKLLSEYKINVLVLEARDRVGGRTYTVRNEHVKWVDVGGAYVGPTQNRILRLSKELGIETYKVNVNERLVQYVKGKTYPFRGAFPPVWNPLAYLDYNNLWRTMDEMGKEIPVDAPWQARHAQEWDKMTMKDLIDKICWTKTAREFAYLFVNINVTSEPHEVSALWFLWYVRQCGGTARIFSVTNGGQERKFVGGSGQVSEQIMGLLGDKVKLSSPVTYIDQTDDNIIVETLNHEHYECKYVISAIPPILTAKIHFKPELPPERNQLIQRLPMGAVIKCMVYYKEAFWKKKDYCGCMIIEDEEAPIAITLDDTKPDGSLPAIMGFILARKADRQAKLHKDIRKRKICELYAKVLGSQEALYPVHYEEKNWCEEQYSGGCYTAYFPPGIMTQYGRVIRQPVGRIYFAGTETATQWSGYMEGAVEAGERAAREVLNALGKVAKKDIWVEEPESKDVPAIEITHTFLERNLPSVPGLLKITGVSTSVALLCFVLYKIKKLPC

SMILES | IC50 [1] | IC50 [2]
COc1cc(Br)c2oc(C3CCNCC3)cc2c1 [BROFAROMINE] | > 1000 nM | 
CCS(=O)(=O)Oc1ccc2c(C)c(C)c(=O)oc2c1 [ESUPRONE] |  | 8 nM
NCCNC(=O)c1ccc(Cl)cn1 [LAZABEMIDE] |  | > 10000 nM

— ChEMBL document CHEMBL1127882, “Synthesis of coumarins as subtype-selective inhibitors of monoamine oxidase” (Bioorg Med Chem Lett, 1994)
